From patent US20260384438A1, “PYRROLOPYRIMIDINE CARBOXAMIDES” (published 2026)

Amino acid sequences for entries named in this document (tags omitted).
UniProt O75716, whole entry: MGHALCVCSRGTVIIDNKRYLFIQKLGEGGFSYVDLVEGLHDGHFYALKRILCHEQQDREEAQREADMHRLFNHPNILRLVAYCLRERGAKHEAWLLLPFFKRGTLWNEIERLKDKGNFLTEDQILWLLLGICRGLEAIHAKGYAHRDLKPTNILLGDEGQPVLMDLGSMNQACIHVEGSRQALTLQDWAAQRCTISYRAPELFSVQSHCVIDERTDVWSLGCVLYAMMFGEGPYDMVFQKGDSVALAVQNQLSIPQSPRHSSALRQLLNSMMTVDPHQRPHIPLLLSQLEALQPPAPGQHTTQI
UniProt P57058, whole entry: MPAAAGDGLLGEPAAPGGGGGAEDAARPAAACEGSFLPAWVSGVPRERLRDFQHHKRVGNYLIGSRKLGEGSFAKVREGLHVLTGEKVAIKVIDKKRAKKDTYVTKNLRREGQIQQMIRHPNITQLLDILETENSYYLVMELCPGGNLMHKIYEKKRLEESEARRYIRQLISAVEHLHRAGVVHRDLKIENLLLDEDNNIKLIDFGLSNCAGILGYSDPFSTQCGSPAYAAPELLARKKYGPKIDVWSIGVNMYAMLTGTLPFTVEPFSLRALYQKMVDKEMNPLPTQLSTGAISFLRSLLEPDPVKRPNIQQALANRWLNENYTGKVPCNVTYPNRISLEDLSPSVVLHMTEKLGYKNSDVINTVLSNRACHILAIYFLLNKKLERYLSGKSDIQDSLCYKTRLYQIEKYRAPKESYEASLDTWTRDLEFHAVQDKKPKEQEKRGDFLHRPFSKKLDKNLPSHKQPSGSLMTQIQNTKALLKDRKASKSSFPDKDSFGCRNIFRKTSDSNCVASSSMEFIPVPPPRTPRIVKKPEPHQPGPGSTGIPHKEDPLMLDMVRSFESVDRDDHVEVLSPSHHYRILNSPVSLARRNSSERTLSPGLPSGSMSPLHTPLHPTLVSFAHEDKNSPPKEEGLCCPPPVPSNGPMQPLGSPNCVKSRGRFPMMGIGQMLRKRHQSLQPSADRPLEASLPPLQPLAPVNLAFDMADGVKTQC
UniProt Q13163, whole entry: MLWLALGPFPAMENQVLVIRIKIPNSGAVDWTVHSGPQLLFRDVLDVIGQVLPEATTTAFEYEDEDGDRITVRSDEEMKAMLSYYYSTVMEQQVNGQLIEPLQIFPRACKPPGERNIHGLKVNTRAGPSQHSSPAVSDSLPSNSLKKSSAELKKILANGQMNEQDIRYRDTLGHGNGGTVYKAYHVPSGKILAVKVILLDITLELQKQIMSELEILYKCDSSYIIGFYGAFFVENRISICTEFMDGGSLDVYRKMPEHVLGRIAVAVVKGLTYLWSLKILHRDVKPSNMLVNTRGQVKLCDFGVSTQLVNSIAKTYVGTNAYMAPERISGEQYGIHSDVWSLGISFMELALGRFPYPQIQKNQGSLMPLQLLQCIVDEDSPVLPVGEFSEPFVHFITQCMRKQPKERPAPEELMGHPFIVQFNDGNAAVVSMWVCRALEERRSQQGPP
UniProt Q9UKE5, whole entry: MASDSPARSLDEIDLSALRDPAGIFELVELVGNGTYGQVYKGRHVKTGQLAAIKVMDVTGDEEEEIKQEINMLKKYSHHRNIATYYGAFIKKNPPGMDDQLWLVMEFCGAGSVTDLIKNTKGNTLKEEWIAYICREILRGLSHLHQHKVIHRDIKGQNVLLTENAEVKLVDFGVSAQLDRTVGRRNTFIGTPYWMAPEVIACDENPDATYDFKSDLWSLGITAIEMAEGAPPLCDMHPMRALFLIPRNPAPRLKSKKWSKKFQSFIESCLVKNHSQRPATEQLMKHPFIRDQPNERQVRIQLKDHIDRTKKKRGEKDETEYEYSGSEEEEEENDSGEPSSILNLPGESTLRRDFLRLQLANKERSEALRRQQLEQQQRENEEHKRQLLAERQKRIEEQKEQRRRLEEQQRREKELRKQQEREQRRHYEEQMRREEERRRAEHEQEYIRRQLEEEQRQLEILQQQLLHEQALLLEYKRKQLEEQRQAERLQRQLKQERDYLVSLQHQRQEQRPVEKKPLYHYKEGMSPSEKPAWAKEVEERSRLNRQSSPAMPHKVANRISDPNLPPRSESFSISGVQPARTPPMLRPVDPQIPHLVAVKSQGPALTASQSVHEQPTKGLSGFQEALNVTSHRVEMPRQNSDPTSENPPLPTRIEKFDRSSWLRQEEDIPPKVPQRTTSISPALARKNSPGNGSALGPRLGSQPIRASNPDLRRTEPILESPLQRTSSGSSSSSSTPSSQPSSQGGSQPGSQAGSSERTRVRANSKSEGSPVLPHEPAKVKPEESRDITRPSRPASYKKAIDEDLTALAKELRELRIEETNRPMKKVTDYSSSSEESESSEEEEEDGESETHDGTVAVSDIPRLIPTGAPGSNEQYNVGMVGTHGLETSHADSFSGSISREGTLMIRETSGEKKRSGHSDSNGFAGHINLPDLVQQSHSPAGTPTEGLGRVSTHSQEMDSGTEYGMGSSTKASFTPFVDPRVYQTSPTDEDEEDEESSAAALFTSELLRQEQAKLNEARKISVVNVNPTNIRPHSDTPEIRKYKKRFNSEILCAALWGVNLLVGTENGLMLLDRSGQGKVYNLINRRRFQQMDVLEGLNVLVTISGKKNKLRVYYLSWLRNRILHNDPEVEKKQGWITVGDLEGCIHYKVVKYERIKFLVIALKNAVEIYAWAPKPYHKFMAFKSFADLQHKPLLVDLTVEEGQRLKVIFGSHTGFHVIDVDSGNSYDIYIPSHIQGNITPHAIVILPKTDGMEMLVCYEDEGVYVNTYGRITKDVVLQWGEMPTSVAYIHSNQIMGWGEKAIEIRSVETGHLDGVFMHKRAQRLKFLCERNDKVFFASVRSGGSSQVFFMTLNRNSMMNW
UniProt P19525, whole entry: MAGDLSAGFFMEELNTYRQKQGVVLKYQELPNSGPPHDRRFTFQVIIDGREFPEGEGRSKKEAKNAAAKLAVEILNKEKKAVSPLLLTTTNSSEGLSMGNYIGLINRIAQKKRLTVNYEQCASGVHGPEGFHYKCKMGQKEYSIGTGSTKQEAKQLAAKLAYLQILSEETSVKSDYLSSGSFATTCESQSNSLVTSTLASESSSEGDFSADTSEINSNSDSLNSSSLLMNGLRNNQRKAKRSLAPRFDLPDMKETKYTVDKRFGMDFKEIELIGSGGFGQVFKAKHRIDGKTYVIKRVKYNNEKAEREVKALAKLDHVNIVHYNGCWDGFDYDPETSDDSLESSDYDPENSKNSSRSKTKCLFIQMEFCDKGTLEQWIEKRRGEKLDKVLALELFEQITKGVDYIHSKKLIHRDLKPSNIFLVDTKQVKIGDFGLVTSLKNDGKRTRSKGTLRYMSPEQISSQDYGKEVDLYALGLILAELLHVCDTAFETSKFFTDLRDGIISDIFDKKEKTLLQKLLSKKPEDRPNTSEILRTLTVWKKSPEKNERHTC
UniProt O14936, whole entry: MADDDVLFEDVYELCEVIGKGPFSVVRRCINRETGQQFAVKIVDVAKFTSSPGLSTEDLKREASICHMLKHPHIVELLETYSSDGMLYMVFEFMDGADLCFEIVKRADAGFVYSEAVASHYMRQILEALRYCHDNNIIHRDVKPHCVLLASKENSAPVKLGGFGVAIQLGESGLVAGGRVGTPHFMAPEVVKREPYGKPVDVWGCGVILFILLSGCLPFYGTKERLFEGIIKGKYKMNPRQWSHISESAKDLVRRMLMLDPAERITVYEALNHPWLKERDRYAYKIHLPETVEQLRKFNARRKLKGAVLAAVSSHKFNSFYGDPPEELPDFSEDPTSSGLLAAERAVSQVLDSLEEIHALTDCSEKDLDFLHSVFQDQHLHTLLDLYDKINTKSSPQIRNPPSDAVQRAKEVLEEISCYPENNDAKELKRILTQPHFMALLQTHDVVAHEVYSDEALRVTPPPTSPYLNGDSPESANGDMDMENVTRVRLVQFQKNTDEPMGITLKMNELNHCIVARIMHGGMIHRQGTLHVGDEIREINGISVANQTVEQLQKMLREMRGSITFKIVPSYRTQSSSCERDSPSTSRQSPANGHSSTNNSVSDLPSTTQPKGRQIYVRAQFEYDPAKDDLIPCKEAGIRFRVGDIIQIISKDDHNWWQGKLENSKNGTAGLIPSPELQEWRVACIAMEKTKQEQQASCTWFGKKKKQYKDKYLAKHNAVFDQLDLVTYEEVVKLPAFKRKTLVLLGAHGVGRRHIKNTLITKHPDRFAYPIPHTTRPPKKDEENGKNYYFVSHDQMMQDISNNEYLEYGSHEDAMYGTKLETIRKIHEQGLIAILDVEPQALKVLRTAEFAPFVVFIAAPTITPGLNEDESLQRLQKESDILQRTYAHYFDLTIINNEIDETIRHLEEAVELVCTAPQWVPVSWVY
UniProt P49336, whole entry: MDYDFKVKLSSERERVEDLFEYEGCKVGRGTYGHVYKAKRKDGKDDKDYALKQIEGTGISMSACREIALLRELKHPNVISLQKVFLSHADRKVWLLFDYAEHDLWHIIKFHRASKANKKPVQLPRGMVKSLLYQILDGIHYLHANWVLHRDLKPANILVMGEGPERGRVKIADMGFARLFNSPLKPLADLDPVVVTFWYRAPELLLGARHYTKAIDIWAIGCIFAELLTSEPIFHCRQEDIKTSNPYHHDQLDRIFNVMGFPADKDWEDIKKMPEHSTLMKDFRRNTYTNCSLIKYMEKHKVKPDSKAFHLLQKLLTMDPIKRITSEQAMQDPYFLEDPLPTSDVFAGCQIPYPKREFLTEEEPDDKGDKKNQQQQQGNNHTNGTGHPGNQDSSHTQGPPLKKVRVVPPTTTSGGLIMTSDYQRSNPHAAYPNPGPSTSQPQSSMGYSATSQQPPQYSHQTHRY
UniProt Q8IVH8, whole entry: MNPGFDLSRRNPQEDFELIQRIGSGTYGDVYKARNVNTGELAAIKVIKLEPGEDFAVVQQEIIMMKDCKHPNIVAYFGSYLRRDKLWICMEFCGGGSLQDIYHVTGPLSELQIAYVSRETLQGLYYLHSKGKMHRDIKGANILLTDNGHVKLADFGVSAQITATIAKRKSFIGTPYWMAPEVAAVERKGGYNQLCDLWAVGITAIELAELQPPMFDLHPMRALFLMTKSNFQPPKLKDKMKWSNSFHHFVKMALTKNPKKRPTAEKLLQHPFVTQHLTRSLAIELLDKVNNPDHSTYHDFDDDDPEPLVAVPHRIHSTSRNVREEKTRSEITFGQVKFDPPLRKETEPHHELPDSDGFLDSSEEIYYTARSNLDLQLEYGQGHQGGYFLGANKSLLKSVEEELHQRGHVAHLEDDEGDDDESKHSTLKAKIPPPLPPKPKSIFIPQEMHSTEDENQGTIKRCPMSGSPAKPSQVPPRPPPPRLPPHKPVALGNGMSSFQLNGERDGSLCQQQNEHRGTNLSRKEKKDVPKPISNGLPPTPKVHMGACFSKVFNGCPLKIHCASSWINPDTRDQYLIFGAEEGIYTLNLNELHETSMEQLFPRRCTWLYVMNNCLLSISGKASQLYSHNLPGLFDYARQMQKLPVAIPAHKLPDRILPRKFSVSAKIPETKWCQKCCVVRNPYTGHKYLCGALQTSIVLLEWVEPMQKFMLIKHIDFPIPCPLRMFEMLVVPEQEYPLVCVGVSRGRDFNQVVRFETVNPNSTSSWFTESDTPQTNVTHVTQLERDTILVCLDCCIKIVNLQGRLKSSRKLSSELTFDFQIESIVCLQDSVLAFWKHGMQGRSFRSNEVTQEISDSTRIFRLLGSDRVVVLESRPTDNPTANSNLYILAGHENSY
UniProt Q99759, whole entry: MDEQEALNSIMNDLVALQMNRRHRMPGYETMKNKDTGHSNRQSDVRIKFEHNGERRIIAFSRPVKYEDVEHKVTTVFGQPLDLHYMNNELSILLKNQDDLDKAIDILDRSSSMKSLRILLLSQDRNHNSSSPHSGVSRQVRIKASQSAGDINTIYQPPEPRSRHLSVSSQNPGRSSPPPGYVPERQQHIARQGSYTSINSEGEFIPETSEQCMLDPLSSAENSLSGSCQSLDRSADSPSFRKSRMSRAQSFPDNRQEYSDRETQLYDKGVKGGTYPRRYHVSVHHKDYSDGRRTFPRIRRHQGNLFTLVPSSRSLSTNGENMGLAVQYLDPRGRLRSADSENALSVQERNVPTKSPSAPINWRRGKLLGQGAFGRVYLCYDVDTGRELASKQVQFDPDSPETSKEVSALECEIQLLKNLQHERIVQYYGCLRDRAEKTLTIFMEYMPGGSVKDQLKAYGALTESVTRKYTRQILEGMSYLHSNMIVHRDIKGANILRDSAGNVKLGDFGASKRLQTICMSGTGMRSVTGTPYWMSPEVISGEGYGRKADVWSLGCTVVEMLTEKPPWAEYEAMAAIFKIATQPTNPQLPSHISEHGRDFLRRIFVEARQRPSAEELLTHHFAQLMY
UniProt P24863, whole entry partner: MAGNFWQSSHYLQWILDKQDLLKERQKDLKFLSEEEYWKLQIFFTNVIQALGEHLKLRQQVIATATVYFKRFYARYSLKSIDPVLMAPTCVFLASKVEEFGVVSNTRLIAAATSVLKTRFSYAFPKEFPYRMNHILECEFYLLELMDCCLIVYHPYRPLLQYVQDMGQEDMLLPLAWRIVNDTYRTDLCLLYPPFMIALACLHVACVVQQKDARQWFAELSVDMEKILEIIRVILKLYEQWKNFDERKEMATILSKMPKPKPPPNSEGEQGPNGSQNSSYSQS

How the values were obtained:
Assay in all cases: Kinase profiling, Lantha
[1] = biological target: GAK (Homo sapiens, UniProt O14976); conditions: 1 μM, KmATP
[2] = biological target: MLK4 (Homo sapiens, UniProt Q5TCX8); conditions: 1 μM, KmATP
[3] = biological target: CAMKK2 (Beta) (Homo sapiens, UniProt Q96RR4); conditions: 1 μM, KmATP
[4] = biological target: STK16 (PKL12) (Homo sapiens, UniProt O75716); conditions: 1 μM, KmATP
[5] = biological target: MAP2K1 (MEK1) (Homo sapiens, UniProt Q02750); conditions: 1 μM, KmATP
[6] = biological target: AMPK (A1/B1/G3) (Homo sapiens, UniProt Q13131); conditions: 1 μM, KmATP
[7] = biological target: CLK4 (Homo sapiens, UniProt Q9HAZ1); conditions: 1 μM, KmATP
[8] = biological target: CDK2/Cyclin E1 (Homo sapiens, UniProt P24941); conditions: 1 μM, KmATP
[9] = biological target: HUNK (Homo sapiens, UniProt P57058); conditions: 1 μM, KmATP
[10] = biological target: CDK9/cyclin K (Homo sapiens, UniProt P50750); conditions: 1 μM, KmATP
[11] = biological target: PKN2 (PRK2) (Homo sapiens, UniProt Q16513); conditions: 1 μM, KmATP
[12] = biological target: EPHA3 (Homo sapiens, UniProt P29320)
[13] = biological target: TLK2 (Homo sapiens, UniProt Q86UE8); conditions: 1 μM, KmATP
[14] = biological target: CDK2/Cyclin O (Homo sapiens, UniProt P24941); conditions: 1 μM, KmATP
[15] = biological target: MAP3K11 (MLK3) (Homo sapiens, UniProt Q16584); conditions: 1 μM, KmATP
[16] = biological target: MAP2K5 (MEK5) (Homo sapiens, UniProt Q13163); conditions: 1 μM, KmATP
[17] = biological target: TNIK (Homo sapiens, UniProt Q9UKE5); conditions: 1 μM, KmATP
[18] = biological target: TGFBR2 (Homo sapiens, UniProt P37173); conditions: 1 μM, KmATP
[19] = biological target: CDK16(PCTK1)/cyclinY (Homo sapiens, UniProt Q00536); conditions: 1 μM, KmATP
[20] = biological target: BMPR1A (ALK3) (Homo sapiens, UniProt P36894)
[21] = biological target: EIF2AK2 (PKR) (Homo sapiens, UniProt P19525); conditions: 1 μM, KmATP
[22] = biological target: CASK (Homo sapiens, UniProt O14936); conditions: 1 μM, KmATP
[23] = biological target: BMPR1B (ALK6) (Homo sapiens, UniProt O00238)
[24] = biological target: LIMK2 (Homo sapiens, UniProt P53671); conditions: 1 μM, KmATP
[25] = biological target: RIPK3 (Homo sapiens, UniProt Q9Y572); conditions: 1 μM, KmATP
[26] = biological target: ZAK (Homo sapiens, UniProt Q9NYL2); conditions: 1 μM, KmATP
[27] = biological target: CDK8/cyclin C (Homo sapiens, UniProt P49336); conditions: 1 μM, KmATP
[28] = biological target: TEC (Homo sapiens, UniProt P42680); conditions: 1 μM, KmATP
[29] = biological target: AMPK (A1/B1/G2) (Homo sapiens, UniProt Q13131); conditions: 1 μM, KmATP
[30] = test system: CDK11(Inactive); conditions: 1 μM, KmATP
[31] = biological target: RAF1 Y340D Y341D (Homo sapiens, UniProt P04049, Y340D/Y341D); conditions: 10-point CR, top 10 μM
[32] = biological target: VRK2 (Homo sapiens, UniProt Q86Y07); conditions: 1 μM, KmATP
[33] = biological target: MAP4K3 (GLK) (Homo sapiens, UniProt Q8IVH8); conditions: 1 μM, KmATP
[34] = biological target: MAP3K3 (MEKK3) (Homo sapiens, UniProt Q99759); conditions: 1 μM, KmATP
[35] = biological target: STK17A (DRAK1) (Homo sapiens, UniProt Q9UEE5); conditions: 1 μM, KmATP
[36] = biological target: MKNK2 (MNK2) (Homo sapiens, UniProt Q9HBH9); conditions: 1 μM, KmATP
[37] = biological target: CDC7/DBF4 (Homo sapiens, UniProt O00311); conditions: 1 μM, KmATP
[38] = biological target: ULK1 (Homo sapiens, UniProt O75385); conditions: 1 μM, KmATP
[39] = biological target: MAP3K10 (MLK2) (Homo sapiens, UniProt Q02779); conditions: 1 μM, KmATP

Structure (SMILES): Cc1nc(C(F)(F)F)c2c(C(N)=O)c(N)n(-c3c(C)ccc(O)c3C)c2n1 (single isomer, unassigned)
- MEAN INHIBITION [1]: 0.979%
- MEAN INHIBITION [2]: −9.807%
- MEAN INHIBITION [3]: 2.806%
- MEAN INHIBITION [4]: 2.533%
- MEAN INHIBITION [5]: −1.153%
- MEAN INHIBITION [6]: 7.831%
- MEAN INHIBITION [7]: 7.663%
- MEAN INHIBITION [8]: 3.273%
- MEAN INHIBITION [9]: 11.675%
- MEAN INHIBITION [10]: 0.354%
- MEAN INHIBITION [11]: 3.734%
- MEAN INHIBITION ([12]; 1 μM, KmATP): 43.400%
- IC50 ([12]; 10-point CR, top 10 μM): 1090 nM
- MEAN INHIBITION [13]: 16.812%
- MEAN INHIBITION [14]: −2.029%
- MEAN INHIBITION [15]: −1.121%
- MEAN INHIBITION [16]: 5.334%
- MEAN INHIBITION [17]: 4.907%
- MEAN INHIBITION [18]: 13.412%
- MEAN INHIBITION [19]: −0.183%
- MEAN INHIBITION ([20]; 1 μM, KmATP): 72.857%
- IC50 ([20]; 10-point CR, top 10 μM): 478 nM
- MEAN INHIBITION [21]: 2.190%
- MEAN INHIBITION [22]: −5.323%
- MEAN INHIBITION ([23]; 1 μM, KmATP): 96.641%
- IC50 ([23]; 10-point CR, top 10 μM): 36 nM
- MEAN INHIBITION [24]: −0.783%
- MEAN INHIBITION [25]: 23.832%
- MEAN INHIBITION [26]: −1.651%
- MEAN INHIBITION [27]: 13.629%
- MEAN INHIBITION [28]: −5.136%
- MEAN INHIBITION [29]: 0.515%
- MEAN INHIBITION [30]: −2.904%
- IC50 [31]: 49 nM
- MEAN INHIBITION [32]: −4.440%
- MEAN INHIBITION [33]: 1.158%
- MEAN INHIBITION [34]: 8.215%
- MEAN INHIBITION [35]: 12.833%
- MEAN INHIBITION [36]: 2.415%
- MEAN INHIBITION [37]: 3.217%
- MEAN INHIBITION [38]: 0.045%
- MEAN INHIBITION [39]: 1.290%
